The source of these data is US7803801B2, “Aminopyridine compounds having Syk inhibitory activity” (Japan Tobacco, Inc., priority 2005, dated 2010).

Each structure is given as a SMILES string.

Assay [1] deals with GST-Syk Full Protein (human) (Homo sapiens, UniProt P43405). As to the kind of experiment: Syk kinase inhibition test (HTRF method). The settings on record: read-out: sykHTRF ave IC50, 100 μM ATP, 30 min room temperature, average. On the procedure: Syk Kinase Inhibition Test (HTRF Method)
After the compounds were serially diluted with dimethylsulfoxide (DMSO), 10 μL of those 10-fold diluted with kinase buffer (20 mM HEPES pH 7.0, 10 mM MgCl2, 50 mM NaCl, 1 mM 2-ME, 0.05% BSA) was added to opti-plate HTRF-96 (Packard) (final DMSO concentration: 2%). […] After allowed to stand still at room temperature for 1 hour, inhibitory effect of a compound against Syk kinase enzymatic activity was evaluated by measuring 665/620 fluorescence ratio to excitation light at 337 nm by ARVO (Wallac).

The test system of assay [2] is cultured human mast cells. Briefly: Degranulation inhibition test using cultured human mast cells (IgE cross-linking, β-Hexosaminidase release). The conditions noted are these: read-out: human degranulation ave. IC50, anti-hIgE stimulation, β-Hexosaminidase index, average. On the procedure:
Degranulation Inhibition Test Using Cultured Human Mast Cells
(1) Separation of Hematopoietic Stem Cells;
After 10 to 60 mL of umbilical cord blood collected with heparin was diluted with an equivalent amount of buffer (0.5% BSA, 2 mM EDTA/PBS-), it was superposed on Ficoll-Paque (Amersham Pharmacia Biotech) (Ficoll/Blood (1:2)) and mononuclear leukocyte fraction was collected by centrifuging it at 400 G (1350 rpm) 4° C. for 30 minutes. After centrifugal washing (1500 rpm, 5 min, 4° C.×3) with buffer, the number of cells was counted and 0.1 mL of CD34 Progenitor Cell Isolation Kit (Miltenyi Biotec), Reagent A1 (Fc blocking) was added for 1×10^8 cells. After agitation, 0.1 mL of Reagent A2 (CD34 antibody-hapten) was added (final volume 0.5 mL/1×10^8 cells) and incubated at 9° C. for further 15 minutes after agitation. […]
10 μL of a compound 10-fold diluted with IMDM after dissolved in DMSO (DMSO final concentration 0.1%) was added and reacted at 37° C. for 10 minutes. […] After centrifugation, 50 μL/well of the supernatant was collected and stored at −40° C. untill the quantity of degranulation was measured. The measurement of quantity of degranulation was performed using enzymatic activity of β-Hexosaminidase contained in the granulates as an index. […]

Regarding `CC(=O)NN1CCN(C(=O)[C@H]2CC[C@H](c3ncc(-c4cccc(Nc5cc(C)ccn5)n4)s3)CC2)CC1`, the IC50 in assay [1] and in assay [2] was 100 to 1000 nM each time.
